In article PMC5867211 (Archives of toxicology, 2017):

Assay: in vitro
Details: human

- IC50: 200 ± 10 µM
Structure (SMILES): CC(CCc1ccccc1)NCC(O)c1ccc(O)c(C(N)=O)c1 (stereo not shown) [Labetalol]
